Reference: US11618753B2 (priority 2018, dated 2023)
Where two headings read alike, the source gives them in different places.

Protein sequences, listed by entry. Tags and fused reporters are not part of them. Lines headed by an entry give the natural chain unless they say otherwise; changes in a name come on top. Residues count along the entry.
UniProt Q13546, 1-324: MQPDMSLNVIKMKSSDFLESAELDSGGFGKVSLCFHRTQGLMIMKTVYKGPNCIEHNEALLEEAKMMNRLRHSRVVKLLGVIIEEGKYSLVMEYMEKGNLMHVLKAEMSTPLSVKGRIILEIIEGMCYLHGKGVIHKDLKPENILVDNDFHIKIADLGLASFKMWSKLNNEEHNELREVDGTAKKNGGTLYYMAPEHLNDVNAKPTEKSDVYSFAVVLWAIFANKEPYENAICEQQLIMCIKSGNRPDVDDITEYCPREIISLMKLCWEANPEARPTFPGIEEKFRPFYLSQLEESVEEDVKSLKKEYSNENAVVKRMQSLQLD
UniProt O00329: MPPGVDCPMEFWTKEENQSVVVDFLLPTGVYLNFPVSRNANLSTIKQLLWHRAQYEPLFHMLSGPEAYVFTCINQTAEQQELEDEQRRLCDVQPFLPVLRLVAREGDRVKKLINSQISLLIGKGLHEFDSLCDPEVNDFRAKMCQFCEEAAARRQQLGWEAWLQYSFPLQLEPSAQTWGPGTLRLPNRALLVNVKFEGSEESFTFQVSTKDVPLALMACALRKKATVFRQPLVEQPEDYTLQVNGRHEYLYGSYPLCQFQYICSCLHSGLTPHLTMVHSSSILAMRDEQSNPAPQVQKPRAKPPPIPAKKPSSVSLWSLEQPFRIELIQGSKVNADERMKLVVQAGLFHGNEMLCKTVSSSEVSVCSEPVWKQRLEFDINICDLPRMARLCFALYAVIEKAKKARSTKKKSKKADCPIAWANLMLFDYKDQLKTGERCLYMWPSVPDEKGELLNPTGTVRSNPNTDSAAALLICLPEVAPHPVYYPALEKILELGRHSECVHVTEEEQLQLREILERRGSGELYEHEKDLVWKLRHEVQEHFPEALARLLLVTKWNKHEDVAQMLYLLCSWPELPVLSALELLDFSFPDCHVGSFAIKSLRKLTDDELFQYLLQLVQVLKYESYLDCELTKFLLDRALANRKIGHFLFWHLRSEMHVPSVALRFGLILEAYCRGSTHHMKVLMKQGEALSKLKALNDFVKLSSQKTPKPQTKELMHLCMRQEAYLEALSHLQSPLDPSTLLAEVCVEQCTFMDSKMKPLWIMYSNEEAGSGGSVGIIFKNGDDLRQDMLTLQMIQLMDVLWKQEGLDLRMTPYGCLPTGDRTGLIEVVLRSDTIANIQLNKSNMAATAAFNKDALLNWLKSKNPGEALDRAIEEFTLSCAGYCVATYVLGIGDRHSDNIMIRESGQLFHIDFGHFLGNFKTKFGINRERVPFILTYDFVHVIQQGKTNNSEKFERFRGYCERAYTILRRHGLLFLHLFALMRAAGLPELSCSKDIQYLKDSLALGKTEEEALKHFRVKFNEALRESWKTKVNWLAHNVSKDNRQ

How the values were obtained:
[1] = molecular target: His-GST-TVMV-hRIPK1(1-324) (Homo sapiens (Human), UniProt Q13546); assay: biochemical; settings: HTRF Binding Assay (IC50, uM)
[2] = molecular target: T1, GST-tagged PIK3Cδ in complex with PIK3R1 (Homo sapiens (Human), UniProt O00329); assay: biochemical
Female C57/B16 mice = settings: mouse, in vivo
[3] = molecular target: T1, GST-tagged PIK3Cδ in complex with PIK3R1

Row | Compound | IC50 [1] [µM] | IC50 [2] [nM] | other results
1 | COc1ncc(-c2cc(C#N)c3c(N)ncnn23)cc1C(=O)Nc1cnn(Cc2ccccc2)c1 [Example 9, 5-{4-amino-5-cyanopyrrolo[2,1-f][1,2,4]triazin-7-yl}-N-(1-benzyl-1H-pyrazol-4-yl)-2-methoxypyridine-3-carboxamide] | 0.0021 | > 1500 | –
2 | COc1ncc(-c2cc(C(F)(F)F)c3c(N)ncnn23)cc1C(=O)NCC[C@H](O)c1ccc(Cl)cc1 [Example 10, 5-[4-amino-5-(trifluoromethyl)pyrrolo[2,1-f][1,2,4]triazin-7-yl]-N-[(3S)-3-(4-chlorophenyl)-3-hydroxypropyl]-2-methoxypyridine-3-carboxamide] | – | > 1500 | % protection from body temperature decrease (Female C57/B16 mice): 70%; % reduction in IL6 serum cytokines (Female C57/B16 mice): 78%; % reduction in KC serum cytokines (Female C57/B16 mice): 88%
3 | COc1ncc(-c2cc(C(F)(F)F)c3c(N)ncnn23)cc1C(=O)N[C@@H]1CN(C(=O)C2CC(F)(F)C2)C[C@@H]1F [Example 31-1, 5-[4-amino-5-(trifluoromethyl)pyrrolo[2,1-f][1,2,4]triazin-7-yl]-N-[1-(3,3-difluorocyclobutanecarbonyl)-(3R,4S)-4-fluoropyrrolidin-3-yl]-2-methoxypyridine-3-carboxamide] | – | 335 | % protection from body temperature decrease (Female C57/B16 mice): 77%; % reduction in IL6 serum cytokines (Female C57/B16 mice): 77%; % reduction in KC serum cytokines (Female C57/B16 mice): 89%
4 | COc1ncc(-c2ccc3c(N)ncnn23)cc1C(=O)N[C@@H]1CN(C(=O)C2CC(F)C2)C[C@@H]1F (stereo partly drawn) [Example 157, 5-{4-aminopyrrolo[2,1-f][1,2,4]triazin-7-yl}-N-[(3R,4S)-4-fluoro-1-(3-fluorocyclobutanecarbonyl)pyrrolidin-3-yl]-2-methoxypyridine-3-carboxamide] | 0.039 | – | –
5 | Cc1ncc(-c2cc(C(F)(F)F)c3c(N)ncnn23)cc1C(=O)NCCC(C)c1ccccc1 (centres unmarked) [Example 171, 5-[4-amino-5-(trifluoromethyl)pyrrolo[2,1-f][1,2,4]triazin-7-yl]-2-methyl-N-(3-phenylbutyl)pyridine-3-carboxamide] | 0.0024 | 280 | RIPK1 Selectivity (x fold) >100 x [3]: x (key: >100 x)
6 | Cc1ncc(-c2cc(C(F)(F)F)c3c(N)ncnn23)cc1C(=O)N1CCC[C@@H](Cc2ccc(F)cc2)C1 [Example 172, 7-{5-[(3S)-3-[(4-fluorophenyl)methyl]piperidine-1-carbonyl]-6-methylpyridin-3-yl}-5-(trifluoromethyl)pyrrolo[2,1-f][1,2,4]triazin-4-amine] | 0.021 | – | –
7 | Cc1ncc(-c2cc(C(F)(F)F)c3c(N)ncnn23)cc1C(=O)N1CCC[C@H](Cc2ccc(F)cc2)C1 [Example 174, 7-{5-[(3R)-3-[(4-fluorophenyl)methyl]piperidine-1-carbonyl]-6-methylpyridin-3-yl}-5-(trifluoromethyl)pyrrolo[2,1-f][1,2,4]triazin-4-amine] | 0.018 | – | –
8 | Cc1ncc(-c2cc(C(F)(F)F)c3c(N)ncnn23)cc1C(=O)N[C@@H]1CN(C(=O)C2CCCC2)C[C@@H]1C [Example 175, 5-[4-amino-5-(trifluoromethyl)pyrrolo[2,1-f][1,2,4]triazin-7-yl]-N-[(3S,4S)-1-cyclopentanecarbonyl-4-methylpyrrolidin-3-yl]-2-methylpyridine-3-carboxamide] | 0.095 | – | –
9 | Nc1ncnn2c(-c3ccc(F)c(C(=O)N4CCOC(Cc5ccccc5)C4)c3)cc(C(F)(F)F)c12 (centres unmarked) [Example 260, 7-[3-(2-benzylmorpholine-4-carbonyl)-4-fluorophenyl]-5-(trifluoromethyl)pyrrolo[2,1-f][1,2,4]triazin-4-amine] | 0.024 | – | –
10 | COc1ncc(-c2cc(C(F)(F)F)c3c(N)ncnn23)cc1C(=O)N[C@@H]1CN(C(=O)[C@@](C)(O)C(F)(F)F)C[C@@H]1F [Example 311, 5-[4-amino-5-(trifluoromethyl)pyrrolo[2,1-f][1,2,4]triazin-7-yl]-N-[(3R,4S)-4-fluoro-1-[(2R)-3,3,3-trifluoro-2-hydroxy-2-methyl-propanoyl]pyrrolidin-3-yl]-2-methoxypyridine-3-carboxamide] | – | 608 | % protection from body temperature decrease (Female C57/B16 mice): 81%; % reduction in IL6 serum cytokines (Female C57/B16 mice): 88%; % reduction in KC serum cytokines (Female C57/B16 mice): 79%
11 | COc1ncc(-c2c(-c3nnnn3C)cc3c(N)ncnn23)cc1C(=O)N[C@@H]1CN(C(=O)[C@@](C)(O)C(F)(F)F)C[C@@H]1F [Example 544, 5-(4-amino-6-(1-methyl-1H-tetrazol-5-yl)pyrrolo[2,1-f][1,2,4]triazin-7-yl)-N-((3R,4S)-4-fluoro-1-((R)-3,3,3-trifluoro-2-hydroxy-2-methylpropanoyl)pyrrolidin-3-yl)-2-methoxynicotinamide] | 0.124 | – | –
12 | C[C@@](O)(C(=O)N1C[C@H](F)[C@H](NC(=O)c2cc(-c3cc(C(F)(F)F)c4c(N)ncnn34)ccc2C(F)(F)F)C1)C(F)(F)F [Example 904, 5-[4-amino-5-(trifluoromethyl)pyrrolo[2,1-f][1,2,4]triazin-7-yl]-N-[(3R,4S)-4-fluoro-1-[(28)-3,3,3-trifluoro-2-hydroxy-2-methylpropanoyl]pyrrolidin-3-yl]-2-(trifluoromethyl)benzamide] | 0.02 | – | –
13 | CC(C)(F)C(=O)N1C[C@H](F)[C@H](NC(=O)c2cc(-c3cc(C(F)(F)F)c4c(N)ncnn34)ccc2OCC(F)(F)F)C1 [Example 1063, 5-[4-amino-5-(trifluoromethyl)pyrrolo[2,1-f][1,2,4]triazin-7-yl]-N-[(3R,4S)-4-fluoro-1-(2-fluoro-2-methylpropanoyl)pyrrolidin-3-trifluoroethoxy)benzamide] | 0.049 | – | –
14 | CC(C(=O)N1C[C@H](F)[C@H](NC(=O)c2cc(-c3cc(C(F)(F)F)c4c(N)ncnn34)ccc2OCC(F)(F)F)C1)C(F)(F)F (stereo partly drawn) [Example 1077, 5-[4-amino-5-(trifluoromethyl)pyrrolo[2,1-f][1,2,4]triazin-7-yl]-N-[(3R,4S)-4-fluoro-1-(3,3,3-trifluoro-2-methylpropanoyl)pyrrolidin-3-trifluoroethoxy)benzamide] | 0.042 | – | –
15 | COc1ncc(-c2cc(C(F)(F)F)c3c(N)ncnn23)cc1C(=O)NCc1ccccc1Oc1ccccc1 [Example 1352, 5-[4-amino-5-(trifluoromethyl)pyrrolo[2,1-f][1,2,4]triazin-7-yl]-2-methoxy-N-[(2-phenoxyphenyl)methyl]pyridine-3-carboxamide] | 0.014 | – | –
16 | COc1ncc(-c2cc(C(F)(F)F)c3c(N)ncnn23)cc1C(=O)N[C@@H]1CN(S(=O)(=O)Cc2ccccc2[N+](=O)[O-])C[C@@H]1F [Example 1487, 5-[4-amino-5-(trifluoromethyl)pyrrolo[2,1-f][1,2,4]triazin-7-yl]-N-[(3R,4S)-4-fluoro-1-[(2-nitrophenyl)methanesulfonyl]pyrrolidin-3-yl]-2-methoxypyridine-3-carboxamide] | 0.0038 | – | –
17 | COc1ncc(-c2cc(CN3CCC(F)(F)CC3)c3c(N)ncnn23)cc1C(=O)NC1CN(S(=O)(=O)C(C)C(F)(F)F)C[C@@H]1F (stereo partly drawn) [Example 1543, 5-{4-amino-5-[(4,4-difluoropiperidin-1-yl)methyl]pyrrolo[2,1-f][1,2,4]triazin-7-yl}-N-[(3R,4S)-4-fluoro-1-(1,1,1-trifluoropropane-2-sulfonyl)pyrrolidin-3-yl]-2-methoxypyridine-3-carboxamide] | – | > 15000 | RIPK1 Selectivity (x fold) >100 x [3]: x (key: >100 x)
18 | COc1ncc(-c2cc(CN3CCC(F)(F)CC3)c3c(N)ncnn23)cc1C(=O)NC1CN(S(=O)(=O)C(C)C(F)(F)F)C[C@@H]1F (stereo partly drawn) [Example 1544, 5-{4-amino-5-[(4,4-difluoropiperidin-1-yl)methyl]pyrrolo[2,1-f][1,2,4]triazin-7-yl}-N-[(3R,4S)-4-fluoro-1-(1,1,1-trifluoropropane-2-sulfonyl)pyrrolidin-3-yl]-2-methoxypyridine-3-carboxamide] | – | – | RIPK1 Selectivity (x fold) >100 x [3]: x (key: >100 x); IC50 ([3]; read-out: PIK3Cδ IC50): > 15000 nM
19 | COc1ncc(-c2cc(F)c3c(N)ncnn23)cc1C(=O)N[C@@H]1CN(C(=O)[C@@](C)(O)C(F)(F)F)C[C@@H]1F [Example 1605, 5-{4-amino-5-fluoropyrrolo[2,1-f][1,2,4]triazin-7-yl}-N-[(3R,4S)-4-fluoro-1-[(2R)-3,3,3-trifluoro-2-hydroxy-2-methylpropanoyl]pyrrolidin-3-yl]-2-methoxypyridine-3-carboxamide] | – | – | % protection from body temperature decrease (Female C57/B16 mice): 46%; % reduction in IL6 serum cytokines (Female C57/B16 mice): 43%; % reduction in KC serum cytokines (Female C57/B16 mice): 52%
